Results published in US20100098690A1, “PHARMACEUTICAL COMPOSITION” (KYOWA HAKKO KIRIN CO., LTD., priority 2007, published 2010).

Columns and labels:
[1] = tested on: human breast cancer cell line (BT-474); experiment: In vitro cell growth inhibition assay (WST-1) with isobologram analysis of combination effect; assay type: cell-based; details: combined with the test compound (hydrochloride of Compound 22), 72 hours, isobologram method
Experimental: Measurement of the cell growth inhibition rate of the test compound and a combined compound on a human multiple myeloma cell line (NCI-H929), a human non-small-cell lung cancer cell line (PC-9), a human breast cancer cell line (BT-474), a human renal cancer cell line (VMRC-RCZ), a human chronic myeloid leukemia cell line (K-562) and a human acute myeloid leukemia cell line (MOLM-13) was carried out in the following manner. […]
The solutions of the test compound and the combined compound diluted with culture medium were added to the plates in an amount of 10 μL/well, respectively, followed by further incubation in a 5% CO2 incubator at 37° C. for 72 hours. […] The absorbance at 450 nm (control wavelength: 655 nm) was measured using a microplate spectrophotometer SPECTRA max 340PC (Molecular Devices). Separately, the solvent used for preparation of each compound solution alone was added to the wells, and the absorbance was measured in the same manner as above after 72-hour incubation carried out in the same manner as above and also immediately after the addition of the solvent. The cell growth inhibition rate on the cells in the compound-added groups (groups treated with the test compound alone, the combined compound alone, or both compounds) was calculated according to the following equation. […]

[2] = tested on: human breast cancer KPL-4 cells; experiment: Antitumor effect in a mouse model transplanted with human breast cancer KPL-4 cells; assay type: in vivo, BALB/cAJcl-nu mice; details: day 10; test compound 100 mg/kg i.v. twice a day x 5 days; paclitaxel 25 mg/kg i.v. days 0 and 3; trastuzumab 50 mg/kg i.v. days 0, 3, 7, 10, 14 and 17

Substance: trastuzumab
- Combination effect of test compound and each compound [1]: Envelope of additivity
- T/C (V/V0 of each group divided by V/V0 of the negative control group) [2]: 0.96
